Source: ChEMBL document CHEMBL1158499, “Synthesis and antidepressant activity of optical isomers of 2-(4-benzylpiperazin-1-yl)-1-(5-chloro-6-methoxynaphthalen-2-yl) propan-1-ol (SIPI5056)” (Bioorg Med Chem Lett, 2010)

By UniProt entry, the sequences of proteins in these tests, tags left out.
UniProt P23977, whole entry: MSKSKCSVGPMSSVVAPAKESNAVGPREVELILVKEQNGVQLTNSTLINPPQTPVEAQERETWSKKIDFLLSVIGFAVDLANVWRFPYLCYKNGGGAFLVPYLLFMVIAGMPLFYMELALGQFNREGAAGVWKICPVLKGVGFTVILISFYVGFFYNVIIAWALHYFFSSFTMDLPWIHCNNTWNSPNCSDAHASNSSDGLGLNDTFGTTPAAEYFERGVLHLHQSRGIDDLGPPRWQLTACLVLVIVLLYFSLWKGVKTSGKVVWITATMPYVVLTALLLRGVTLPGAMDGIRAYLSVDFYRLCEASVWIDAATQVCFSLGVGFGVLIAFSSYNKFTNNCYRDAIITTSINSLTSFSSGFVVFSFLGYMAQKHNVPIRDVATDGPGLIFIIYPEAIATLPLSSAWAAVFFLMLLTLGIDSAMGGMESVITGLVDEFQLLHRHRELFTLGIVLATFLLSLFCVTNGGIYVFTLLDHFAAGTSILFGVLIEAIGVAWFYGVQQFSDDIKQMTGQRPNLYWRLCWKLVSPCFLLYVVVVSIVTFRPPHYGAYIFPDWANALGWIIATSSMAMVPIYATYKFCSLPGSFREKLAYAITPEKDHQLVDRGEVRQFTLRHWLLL
UniProt Q63380, whole entry: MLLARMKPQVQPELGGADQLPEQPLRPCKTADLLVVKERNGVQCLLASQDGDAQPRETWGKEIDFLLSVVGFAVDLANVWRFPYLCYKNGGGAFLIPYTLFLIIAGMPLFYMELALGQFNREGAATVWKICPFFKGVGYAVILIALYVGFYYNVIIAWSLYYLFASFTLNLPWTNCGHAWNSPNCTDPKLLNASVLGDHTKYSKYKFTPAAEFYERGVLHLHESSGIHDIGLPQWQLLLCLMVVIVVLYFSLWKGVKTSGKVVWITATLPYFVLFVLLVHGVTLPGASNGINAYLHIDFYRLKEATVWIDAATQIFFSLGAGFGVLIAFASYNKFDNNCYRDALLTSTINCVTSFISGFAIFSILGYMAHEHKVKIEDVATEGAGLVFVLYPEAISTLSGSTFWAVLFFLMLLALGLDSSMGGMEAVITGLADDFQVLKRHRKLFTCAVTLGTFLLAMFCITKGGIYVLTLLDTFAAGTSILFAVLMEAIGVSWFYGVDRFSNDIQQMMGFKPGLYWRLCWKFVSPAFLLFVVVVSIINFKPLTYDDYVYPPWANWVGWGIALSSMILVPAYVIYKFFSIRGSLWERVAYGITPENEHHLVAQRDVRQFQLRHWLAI

Key:
[1] = molecular target: Sodium-dependent dopamine transporter (Rattus norvegicus, UniProt P23977); assay: Inhibition of [3H]dopamine reuptake at rat brain frontal cortex dopamine transporter; assay type: tissue-based
Summary of the method: (§1)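 Rat frontal cortex synaptosomes prepared at 4 °C: tissue homogenized in ice-cold 0.32 M sucrose, spun at 1500g for 10 min, and the supernatant spun at 20,000g for 30 min. The pellet was resuspended in buffer and protein measured. Synaptosomes were preincubated with compound 5 min at 37 °C, then given 300 nM [3H]-DA or [3H]-NA for 5 min at 37 °C. Uptake was stopped on ice and samples filtered and washed with artificial cerebral fluid before scintillation counting. Active uptake was taken as the 37 °C minus 0 °C difference.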

[2] = molecular target: Transporter (Rattus norvegicus, UniProt Q63380); assay: Inhibition of [3H]norepinephrine reuptake at rat brain frontal cortex norepinephrine transporter; assay type: tissue-based; summary of the method: as §1

COc1ccc(C(CN(C)C)C2(O)CCCCC2)cc1 (configuration not stated) [VENLAFAXINE]
IC50 [1]: > 1000 µM
IC50 [2]: 1.4 µM
